Key:
[1] = biological target: Enterococcus faecalis endo-α-GalNAcase EngEF (NP_815498.1), SEQ ID NO:2 (Enterococcus faecalis, UniProt Q833X5); assay: Steady-state enzyme kinetics of EngEF; settings: Core 1 substrate; 25° C.; average of three measurements
[2] = biological target: Propionibacterium acnes endo-α-GalNAcase EngPA (YP_056270.1), SEQ ID NO:3 (Cutibacterium acnes, UniProt A0ABM7H013); assay: Steady-state enzyme kinetics of EngPA; settings: Core 1 substrate; 25° C.; average of three measurements

Compound: CC(=O)N[C@H]1[C@@H](Oc2ccc([N+](=O)[O-])cc2)O[C@H](CO)[C@H](O)[C@@H]1O[C@@H]1O[C@H](CO)[C@H](O)[C@H](O)[C@H]1O [Galβ1,3GalNAcα1ρNP]
- kcat [1]: 51.17 s⁻¹
- kcat [2]: 2.009 s⁻¹

Source: patent US8969034B2, “Endoglycosidases that cleave O-linked glycans” (New England Biolabs, Inc., priority 2008, dated 2015)
